Legend:
[1] = biological target: human PXR (Homo sapiens, UniProt O75469); assay: PXR assay: PXR mediated CYP3A4 induction in DPX-2 cell line; conditions: DPX-2 cells
[2] = tested on: MDCK-Wild Type; assay: MDCK-Wild Type permeability, 96 well + 0.1% BSA; type: in vitro ADME; conditions: A-B direction
[3] = biological target: F508del-CFTR (Homo sapiens, UniProt P13569, DEL508-508); assay: Membrane potential optical (FLIPR) assay for F508del-CFTR modulators in NIH 3T3 cells; conditions: read-out: CFTRdF508 Cor 3T3 FLIPR 384 CFTRdF508 MP 3T3 770 EC50; NIH 3T3 cells expressing F508del; assay A1
From the text: Membrane Potential Optical Methods for Assaying Properties of F508del-CFTR Modulators
The assay utilizes fluorescent voltage sensing dyes to measure changes in membrane potential using a fluorescent plate reader (e.g., FLIPR III, Molecular Devices, Inc.) as a readout for increase in functional F508del in NIH 3T3 cells. The driving force for the response is the creation of a chloride ion gradient in conjunction with channel activation and concurrent with compound treatment by a single liquid addition step after the cells have previously been loaded with a voltage sensing dye.
A1. Identification of F508del-CFTR Modulators
To identify modulators of F508del, a fluorescence based HTS assay format was developed. This HTS assay utilizes fluorescent voltage sensing dyes to measure changes in membrane potential on the FLIPR III as a measurement for increase in gating (conductance) of F508del NIH 3T3 cells. The driving force for the response is the creation of a chloride ion gradient in conjunction with channel activation and concurrent with compound treatment by a single liquid addition step after the cells have previously been loaded with a voltage sensing dye.
Bath Solution #1: (in mM) NaCl 160, KCl 4.5, CaCl2 2, MgCl2 1, HEPES 10, pH 7.4 with NaOH, Glucose 10.
Chloride-free bath solution: Chloride salts in Bath Solution #1 (above) are substituted with gluconate salts. […]

The chains behind the UniProt entries cited, without tags or fusion partners. A line that says so, or that is headed by a name, gives the form on record, which may keep a tag or linker.
UniProt O75469, whole entry: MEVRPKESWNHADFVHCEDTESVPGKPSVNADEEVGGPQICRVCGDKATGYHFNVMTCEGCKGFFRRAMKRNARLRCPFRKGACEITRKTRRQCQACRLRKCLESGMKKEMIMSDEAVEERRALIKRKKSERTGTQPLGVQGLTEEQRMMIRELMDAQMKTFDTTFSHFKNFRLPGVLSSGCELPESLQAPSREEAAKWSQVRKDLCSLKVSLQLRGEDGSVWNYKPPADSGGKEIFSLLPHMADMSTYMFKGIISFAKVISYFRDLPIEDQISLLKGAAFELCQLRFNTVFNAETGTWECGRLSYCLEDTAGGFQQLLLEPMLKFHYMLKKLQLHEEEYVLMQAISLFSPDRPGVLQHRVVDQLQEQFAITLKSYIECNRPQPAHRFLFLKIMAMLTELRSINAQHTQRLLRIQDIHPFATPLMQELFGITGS
UniProt P13569, with tags, fused parts or gaps DEL508-508: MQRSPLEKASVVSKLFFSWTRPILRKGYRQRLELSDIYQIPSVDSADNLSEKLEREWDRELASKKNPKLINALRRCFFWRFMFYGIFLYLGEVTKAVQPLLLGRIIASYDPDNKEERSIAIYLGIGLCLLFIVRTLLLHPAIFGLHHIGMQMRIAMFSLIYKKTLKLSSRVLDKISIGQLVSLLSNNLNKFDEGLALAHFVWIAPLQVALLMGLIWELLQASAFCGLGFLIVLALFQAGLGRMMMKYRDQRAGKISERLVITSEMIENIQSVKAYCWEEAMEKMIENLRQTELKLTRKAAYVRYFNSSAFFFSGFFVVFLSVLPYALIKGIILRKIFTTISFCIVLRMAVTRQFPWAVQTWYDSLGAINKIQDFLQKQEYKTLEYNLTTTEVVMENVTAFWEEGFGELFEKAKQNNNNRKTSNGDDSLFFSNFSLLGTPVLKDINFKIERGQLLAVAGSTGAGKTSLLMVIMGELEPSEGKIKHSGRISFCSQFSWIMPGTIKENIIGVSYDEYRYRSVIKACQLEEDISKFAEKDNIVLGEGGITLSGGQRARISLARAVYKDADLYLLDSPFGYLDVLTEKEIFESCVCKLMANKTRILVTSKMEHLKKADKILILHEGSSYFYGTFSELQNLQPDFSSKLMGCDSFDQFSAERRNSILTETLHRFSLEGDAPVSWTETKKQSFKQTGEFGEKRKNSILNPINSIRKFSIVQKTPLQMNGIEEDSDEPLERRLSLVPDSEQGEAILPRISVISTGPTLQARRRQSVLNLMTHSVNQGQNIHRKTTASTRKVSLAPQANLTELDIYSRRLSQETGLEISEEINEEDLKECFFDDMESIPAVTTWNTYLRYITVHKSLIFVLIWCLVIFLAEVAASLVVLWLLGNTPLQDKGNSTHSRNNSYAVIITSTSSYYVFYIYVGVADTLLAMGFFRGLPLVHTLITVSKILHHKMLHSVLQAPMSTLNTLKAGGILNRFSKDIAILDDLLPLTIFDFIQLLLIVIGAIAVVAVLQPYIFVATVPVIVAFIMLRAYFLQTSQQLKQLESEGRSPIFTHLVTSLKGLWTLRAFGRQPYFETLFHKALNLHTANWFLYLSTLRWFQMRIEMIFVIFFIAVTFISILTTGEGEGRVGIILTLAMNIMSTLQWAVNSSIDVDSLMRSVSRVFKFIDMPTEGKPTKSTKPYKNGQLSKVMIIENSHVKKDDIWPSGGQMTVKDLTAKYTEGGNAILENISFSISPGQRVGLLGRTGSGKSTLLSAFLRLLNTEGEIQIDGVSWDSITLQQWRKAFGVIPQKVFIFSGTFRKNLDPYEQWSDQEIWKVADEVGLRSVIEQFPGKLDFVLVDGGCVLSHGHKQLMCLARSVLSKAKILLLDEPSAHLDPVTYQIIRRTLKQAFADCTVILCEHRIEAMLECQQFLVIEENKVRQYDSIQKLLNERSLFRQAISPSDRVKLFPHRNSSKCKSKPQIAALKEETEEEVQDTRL

Structure (SMILES) | CYP3A4 Induction-PXR human PXR internal Max % Activity [1] | MDCK-Wild Type-Permeability 96 well + 0.1% BSA Papp compound (A-B) [2] | EC50 [3]
Cc1c(S(=O)(=O)NC(=O)c2ccc(-n3ccc(COCC4(C(F)(F)F)CC4)n3)nc2N2C[C@@H](C)CC2(C)C)cnn1C | 6% | 1.3 10E-6 cm/s | 440 nM
Cc1c(S(=O)(=O)NC(=O)c2ccc(-n3ccc(OCCC(F)(F)F)n3)nc2N2C[C@@H](C)CC2(C)C)cnn1C | 33.5% |  | 860 nM

— patent US10793547B2, “Modulator of the cystic fibrosis transmembrane conductance regulator, pharmaceutical compositions, methods of treatment, and process for making the modulator” (Vertex Pharmaceuticals Incorporated, priority 2016, dated 2020)
